# Experimental data as given in article PMC5673638 (Frontiers in Microbiology, 2017).
# Key:
# [1] = mouse, in vivo
# [2] = mouse, in vivo, iv
Substance,Adverse events [1],Terminal half-lives [2],t1/2 [2] [min]
"D,L-lysine acetylsalicylate ⋅ glycine [BAY 81-8781]",no adverse events were found,–,–
salicylate,–,short,31.5
